Key:
[1] = Cytotoxicity against CHOK1 cells assessed as viability after 24 hrs by MTT assay; format: cell-based, Cricetulus griseus; details: cho-k1
Salmonella typhimurium [2] = assay: Mutagenic activity in Salmonella typhimurium TA98 assessed as induction of reverse mutation at 50 uM; details: salmonella enterica subsp. enterica serovar typhimurium
Salmonella typhimurium [3] = assay: Mutagenic activity in Salmonella typhimurium TA100 assessed as induction of reverse mutation at 50 uM; details: salmonella enterica subsp. enterica serovar typhimurium

| Compound | IC50 [1] [µM] | Activity (Salmonella typhimurium [2]) | Activity (Salmonella typhimurium [3]) |
| --- | --- | --- | --- |
| O=[N+]([O-])c1cc(C[Se]c2nnn(Cc3cc([N+](=O)[O-])cc([N+](=O)[O-])c3)n2)cc([N+](=O)[O-])c1 | 40 | – | – |
| O=[N+]([O-])c1ccc(Cn2nnnc2SCc2cc([N+](=O)[O-])cc([N+](=O)[O-])c2)cc1 | – | Toxic | Toxic |
| O=[N+]([O-])c1ccc(Cn2nnc(SCc3cc([N+](=O)[O-])cc([N+](=O)[O-])c3)n2)cc1 | – | Toxic | Toxic |
| O=[N+]([O-])c1ccc(Cn2nnnc2[Se]Cc2cc([N+](=O)[O-])cc([N+](=O)[O-])c2)cc1 | 27 | – | – |
| O=[N+]([O-])c1cc(C[Se]c2nnnn2Cc2cc([N+](=O)[O-])cc([N+](=O)[O-])c2)cc([N+](=O)[O-])c1 | 6.5 | – | – |
